# Test results reported in PubChem BioAssay AID624171 (National Center for Advancing Translational Sciences (NCATS), 2012).
# This is a selection; strong and weak results do not stand in their true shares. Active and inactive are the calls of the source. Calls follow the shape of the dose curve; as a rule, active = well fitted activation curve with a large enough effect; inconclusive = small, poorly fitted or top-dose-only effect; inactive = flat fitted curve, though single readings scatter.
# Experiment: qHTS of Nrf2 Activators; also: % of control where 0% means no effect; nearly all actives have a fitted effect of over 65% in size
# Conditions: AREc32 ARE-luciferase reporter (MCF7-derived line), luminescence, 24 h; at 46.1 µM (top of the series) unless noted
# Excerpt: Many diseases have some form of oxidative stress injury and ties to inflammation, causing a host of problems for the patient. The antioxidant response element (ARE) plays an important role in alleviating the harmful effects of oxidative stress. The antioxidant response element (ARE) is a transcriptional regulatory element involved in the activation of genes coding for a number of antioxidant proteins and detoxifying enzymes. These enzymes work in concert to protect tissues from oxidative insults and chemical toxicities in human hepatocytes and immune cells. The protective effects of ARE activation are primarily triggered through Nrf2 (NF-E2-related factor) binding to and activating AREs. It is known that Nrf2 controls the production of over 250 antioxidant and detoxification proteins (Hu et al., 2006), thereby protecting tissues by increasing cellular antioxidant content and suppressing inflammatory signaling pathways. The transcription factor Nrf2 is a central link between oxidative chemicals, such as phenolic antioxidants and electrophilic compounds, and the activation of ARE. Nrf2 levels are constitutively low as a consequence of its interaction with Keap1, which targets its degradation (Zipper and Mulcahy, 2002). Electrophiles react with key cysteine residues in Keap1, releasing Nrf2 and allowing its translocation to the nucleus. Once within the nucleus, Nrf2 complexes with coactivators such as p300, and binds to the AREs to induce gene transcription of cytoprotective enzymes, resulting in the prevention of toxicity. Activation of Nrf2 protects tissues by increasing cellular antioxidant content and suppressing inflammatory signaling pathways. Identifying novel and potent Nrf2 activators by using the AREc32 cell line to detect ARE activation by small molecules will lead to the identification and development of probes to study protective pathways in multiple tissues. These specific probes are essential to study the ARE pathway, and eventually to determine whether this pathway does activate genes that could protect against a host of diseases, including cardiovascular diseases, obesity, diabetes, Alzheimer's, and Parkinson's disease.
# This project's aim is to identify novel and potent Nrf2 activators by using the AREc32 cell line to detect ARE activation by small molecules, which will lead to the identification and development of probes to study the ARE pathway.
# NIH Chemical Genomics Center [NCGC]
# NIH Molecular Libraries Probe Centers Network [MLPCN]
# Assay Submitter (PI): Curtis Klaassen, University of Kansas Medical Center
# 5 uL of 1000 cells/well of AREc32_Fluc cells are seeded into 1536-well plate in OPTI-MEM medium with 5% FBS. The plates are incubated overnight at 37 deg C with 5% CO2. Then through pin tool transfer, 23 nL of compounds are added to each well before a 24 hr incubation at 37 deg C with 5% CO2. After the addition of 2.5 uL of Steady-Glo. the plates are kept at RT for 30 min, before they are read on the ViewLux.
row,Compound,activation
1,O=C(O)CNc1ccc([As](=O)(O)O)cc1,inactive: -0.908%
2,O=[N+]([O-])c1cccc(NC2=NCC(CBr)S2)c1 (stereo unspecified),inactive: 5.7%
3,COC(=O)C1(C)COP(=O)(Nc2ccccc2)OC1 (stereo unspecified),inactive: -0.826%
4,O=[N+]([O-])c1ncn(CCn2ncnc2[N+](=O)[O-])n1,inactive: 0.624%
5,CC(C)(C)C(=O)NC(Sc1ccncn1)C(Cl)(Cl)Cl (stereo unspecified),inactive: -0.883%
6,O=C(Nc1cc([As](=O)(O)O)ccc1O)c1ccccc1,inactive: -0.582%
7,O=P1(N(CCCl)CCCl)OCCCS1 (stereo unspecified),inactive: -0.0504%
8,c1cc(-c2nn[nH]n2)ccc1-c1nn[nH]n1,inactive: -1.44%
9,CC1CCN(C(=O)Oc2c(Cl)cc(Cl)c3cccnc23)CC1,inactive: 3.26%
10,CN(C)C(=O)OCCc1n(C)cc[n+]1C,inactive: 0.0946%
11,CC(C)=N/N=C(\N)N[N+](=O)[O-],inactive: 2.17%
12,CC(C)c1nc(Nc2ccccc2)n(P(=O)(N(C)C)N(C)C)n1,inactive: -0.139%
13,CCN(/C(=N/P(=O)(N1CCOCC1)N1CCOCC1)N1CCOCC1)c1ccc(OC)cc1,inactive: -0.328%
14,C[N+]1=C2C=CC=CC=C2SC12C([N+](=O)[O-])=CC([N+](=O)[O-])=C[C-]2[N+](=O)[O-] (stereo unspecified),inactive: -2.75%
15,Nc1ccc([As](=O)(O)c2ccc(N)cc2)cc1,inactive: -0.319%
16,CCc1nc2c(n1)c1c(non1O)c1c2no[n+]1[O-],inactive: 7.53%
17,Cc1ccc(NP(=O)(Oc2ccccc2)Oc2ccccc2)nc1,inactive: 0.473%
18,CC(=O)N1C2C3N(C(C)=O)C1C1N(C(C)=O)C(C(N1C(C)=O)N3C(C)=O)N2C(C)=O,inactive: 0.305%
19,O=[N+]([O-])c1cccc2n[nH]nc12,inactive: 0.561%
20,COc1ccc(C2=NCC(CBr)S2)cc1 (stereo unspecified),inactive: 0.0536%
21,O=[N+]([O-])C1C(O)C(O)C([N+](=O)[O-])C(O)C1O (stereo unspecified),inactive: -0.0865%
22,O=C(NC(Sc1ccncn1)C(Cl)(Cl)Cl)c1ccccc1 (stereo unspecified),inactive: 5.3%
23,Oc1ccccc1CNc1ccccn1,inactive: -0.416%
24,CC(C)CC(=O)NC(Sc1ccc(Cl)cc1)C(Cl)(Cl)Cl (stereo unspecified),inactive: 0.309%
25,Nc1cc(N)c2nonc2c1[N+](=O)[O-],inactive: -0.507%
26,Clc1ccc(Cl)c(NC2=NCC(CBr)S2)c1 (stereo unspecified),inactive: 0.378%

row,Compound,activation
1,CN1CCCC(OC(=O)C(c2ccccc2)c2ccccc2)C1 (stereo unspecified),inactive: 1.91%
2,Cc1ccc(OP(=O)(Nc2nccs2)Oc2ccc(C)cc2)cc1,inactive: -0.632%
3,COc1ccccc1OP(=O)(Nc1ccc(C)cn1)Oc1ccccc1OC,inactive: -0.614%
4,Cc1ccc(N/C(=N/P(=O)(N2CCOCC2)N2CCOCC2)N2CCOCC2)cc1,inactive: 0.0858%
5,CN(C(=O)Cc1ccc(Cl)c(Cl)c1)[C@H]1CCCC[C@H]1N1CCCC1,inactive: -0.757%
6,NC(=O)c1cc([N+](=O)[O-])cc([N+](=O)[O-])c1N,inactive: 0.104%
7,Nc1cccc2ccc([As](=O)(O)O)cc12,inactive: -0.594%
8,CCN(N=Nc1nonc1N)c1nonc1N,inactive: -0.294%
9,CN(C(=O)Cc1ccc(Cl)c(Cl)c1)[C@H]1CCCC[C@@H]1N1CCCC1,inactive: 0.83%
10,Cc1ccc(NP(=O)(Oc2ccccc2F)Oc2ccccc2F)nc1,inactive: -0.4%
11,CCOP(=O)(Nc1ccccc1)OCC,inactive: -0.925%
12,Cc1cc(SC(NC(=O)c2ccc(F)cc2)C(Cl)(Cl)Cl)ncn1 (stereo unspecified),inactive: -0.0747%
13,CN(C)P(=O)(N(C)C)n1c(Nc2ccccc2)nnc1-c1ccccc1,inactive: 2.98%
14,O=P(Nc1nc2ccc(Cl)cc2s1)(c1ccccc1)c1ccccc1,inactive: 4.7%
15,CCCC1OP(N)(=O)OCC1CC (stereo unspecified),inactive: -1.12%
16,O=C(O)c1ccccc1[As](=O)(O)O,inactive: 0.0138%
17,CC(=O)Nc1ccc([As](=O)(O)O)cc1,inactive: -0.601%
18,CN(C)C(=O)Oc1noc2ccccc12,inactive: 0.178%
19,O=c1c2cc([N+](=O)[O-])ccc2[nH]c2c([N+](=O)[O-])cc([N+](=O)[O-])cc12,inactive: -0.255%
20,Cc1ccccc1OP(=O)(Nc1ccccn1)Oc1ccccc1C,inactive: -0.143%
21,CC(NC(=O)COC(=O)C(O)(c1ccccc1)c1ccccc1)c1ccccc1 (stereo unspecified),inactive: 0.0942%
22,CCC(=O)N1C2C3N(C(=O)CC)C1C1N(C(=O)CC)C(C(N1C(=O)CC)N3C(=O)CC)N2C(=O)CC,inactive: -0.408%
23,O=C(OC1CN2CCC1CC2)c1ccccc1 (stereo unspecified),inactive: -1.35%
24,CC(=O)NC(SC(=S)N(CC(C)C)CC(C)C)C(Cl)(Cl)Cl (stereo unspecified),inactive: -0.817%
25,Cc1ccc(OP(=O)(Nc2ccccn2)Oc2ccc(C)cc2)cc1,inactive: 2.38%
26,COC(=O)c1cc2c(s1)N=C(c1ccccc1)N(C)P2(=O)N1CCOCC1 (stereo unspecified),inactive: 2.25%

row,Compound,activation
1,O=P1(N(CCCl)CCCl)OCCC2CCCCN21 (stereo unspecified),inactive: -1.21%
2,Cc1ccc(NP(=O)(Oc2cccc(C)c2)Oc2cccc(C)c2)nc1,inactive: -0.224%
3,c1ccc(-c2nn[nH]n2)c(-c2nn[nH]n2)c1,inactive: 2.06%
4,O=C(NC1CCS(=O)(=O)C1)NP(=S)(Oc1ccccc1)Oc1ccccc1 (stereo unspecified),inactive: 2.5%
5,CCNC(=S)/N=C(\N)N[N+](=O)[O-],inactive: -0.0932%
6,CC(=O)Nc1ccc(Oc2c([N+](=O)[O-])cc([N+](=O)[O-])cc2[N+](=O)[O-])cc1,inactive: 9.72%
7,CC(=O)Nc1ccc([As](=O)(O)O)c(O)c1,inactive: -0.495%
8,C[C@@H]1C=CCP(=O)(Oc2ccccc2)O1 (stereo partly specified),inactive: -0.28%
9,C[C@H]1OP(=O)(Oc2ccccc2)C[C@@H]2O[C@@H]21 (stereo partly specified),inactive: -0.358%
10,Cc1ccccc1CN(C)C(=O)COC(=O)C(O)(c1ccccc1)c1ccccc1,inactive: 2.04%
11,COC(=O)C1(C)COP(=O)(NCc2ccccc2)OC1 (stereo unspecified),inactive: -0.234%
12,N#C/C(=C\c1ccc(N(CCBr)CCBr)cc1)C(N)=O,inactive: 12.1%
13,CC(=O)c1ccc(N2CC2c2ccncc2)cc1 (stereo unspecified),inactive: 0.202%
14,CC(C)(C)C(=O)NC(Sc1ccccc1)C(Cl)(Cl)Cl (stereo unspecified),inactive: -0.311%
15,CCc1cc(O)c([N+](=O)[O-])c(C)c1[N+](=O)[O-],inactive: 0.175%
16,CCOc1ccc(C2=NCC(CBr)S2)cc1 (stereo unspecified),inactive: 0.291%
17,O=P1(Nc2nc3ccc(Cl)cc3s2)COc2ccccc2O1 (stereo unspecified),inactive: 4.27%
18,c1nnnn1CCn1cnnn1,inactive: -0.846%
19,O=P(Nc1nccs1)(c1ccccc1)c1ccccc1,inactive: 0.63%
20,CC(C)C(=O)NC(Sc1ccccc1)C(Cl)(Cl)Cl (stereo unspecified),inactive: -0.501%
21,O=C(OC1CN2CCC1CC2)c1cccc(Cl)c1 (stereo unspecified),inactive: -0.187%
22,Nc1ccc([As](=O)(O)c2ccc([N+](=O)[O-])cc2)cc1,inactive: -0.0472%
23,C(Cc1nn[nH]n1)Cc1nn[nH]n1,inactive: -0.22%
24,O=[As](O)(c1ccccc1)c1ccc(O)cc1,inactive: 0.145%
25,CC(=O)NC(SC(=S)N(C)C)C(Cl)(Cl)Cl (stereo unspecified),inactive: 16.6%
26,O=[N+]([O-])c1ncn(CCn2cnc([N+](=O)[O-])n2)n1,inactive: 2.21%

row,Compound,activation
1,O=[N+]([O-])c1ccc(O)c(/C=N/Nc2ccc([N+](=O)[O-])cc2[N+](=O)[O-])c1,inactive: 0.658%
2,C[C@H]1OP(=O)(Oc2ccccc2)[C@H](O)[C@H](O)[C@H]1N=[N+]=[N-] (stereo partly specified),inactive: -0.113%
3,O=P(Nc1nc2ccccc2s1)(c1ccccc1)c1ccccc1,inactive: 0.234%
4,CN(C)C1(CNC(=O)c2ccc(Cl)c(S(N)(=O)=O)c2)CCCCC1,inactive: -0.695%
5,O=P(Nc1ccccn1)(c1ccc(Br)cc1)c1ccc(Br)cc1,inactive: 0.328%
6,Nc1ccc(CCCCOc2ccccc2)cc1,inactive: 4.27%
7,COc1ccc(N)c([N+](=O)[O-])c1[N+](=O)[O-],inactive: 15%
8,Nc1cccc([As](=O)(O)c2ccccc2)c1,inactive: -1.09%
9,NS(=O)(=O)c1cccc(NC(=O)COC(=O)C(O)(c2ccccc2)c2ccccc2)c1,inactive: -0.519%
10,O=P1(Nc2ccc(Br)cn2)COc2ccccc2OC1,inactive: -0.306%
11,Cc1ccc(OCC(=O)OC2CN3CCC2CC3)cc1 (stereo unspecified),inactive: 0.0819%
12,O=[As](O)(c1cccs1)c1cccs1,inactive: -0.101%
13,Cc1ccc(S(=O)(=O)N(CCCN)CCCc2c(C)nc(N)[nH]c2=O)cc1,inactive: 0.538%
14,O=P1(Nc2ncccn2)COc2ccccc2OC1,inactive: 2.36%
15,CN(C)C1(CNC(=O)c2ccc(S(C)(=O)=O)cc2)CCCCC1,inactive: 0.0453%
16,CCCC1OP(=O)(Nc2ccccc2)OCC1CC (stereo unspecified),inactive: 0.149%
17,O=C(/C=C/c1ccccc1)OC1CN2CCC1CC2 (stereo unspecified),inactive: 0.393%
18,Cc1ccc(C(=O)OC2CN3CCC2CC3)cc1 (stereo unspecified),inactive: 0.59%
19,CC1CCC(C(C)C)C(OP(=O)(Nc2ccccn2)c2ccccc2)C1 (stereo unspecified),inactive: 4.55%
20,Cc1nn(-c2ccccc2)c2c1P(=O)(N1CCOCC1)N(C)C(c1ccccc1)=N2 (stereo unspecified),inactive: 0.122%
21,CN(C(=O)Cc1ccc(Cl)c(Cl)c1)[C@@H]1CCCC[C@H]1N1CCCC1,inactive: 2.7%
22,CC(C)/C=N\N=C(\N)N[N+](=O)[O-],inactive: 0.481%
23,CC1(CBr)Cn2c(nc3ccccc3c2=O)S1 (stereo unspecified),inactive: 2.34%
